The record followed here is patent US20180186796A1, “COMPOUNDS AND USES THEREOF” (LEAD DISCOVERY SIENA S.R.L., priority 2014, published 2018).

The chains behind the UniProt entries cited, without tags or fusion partners.
UniProt P06241, whole entry, looked up: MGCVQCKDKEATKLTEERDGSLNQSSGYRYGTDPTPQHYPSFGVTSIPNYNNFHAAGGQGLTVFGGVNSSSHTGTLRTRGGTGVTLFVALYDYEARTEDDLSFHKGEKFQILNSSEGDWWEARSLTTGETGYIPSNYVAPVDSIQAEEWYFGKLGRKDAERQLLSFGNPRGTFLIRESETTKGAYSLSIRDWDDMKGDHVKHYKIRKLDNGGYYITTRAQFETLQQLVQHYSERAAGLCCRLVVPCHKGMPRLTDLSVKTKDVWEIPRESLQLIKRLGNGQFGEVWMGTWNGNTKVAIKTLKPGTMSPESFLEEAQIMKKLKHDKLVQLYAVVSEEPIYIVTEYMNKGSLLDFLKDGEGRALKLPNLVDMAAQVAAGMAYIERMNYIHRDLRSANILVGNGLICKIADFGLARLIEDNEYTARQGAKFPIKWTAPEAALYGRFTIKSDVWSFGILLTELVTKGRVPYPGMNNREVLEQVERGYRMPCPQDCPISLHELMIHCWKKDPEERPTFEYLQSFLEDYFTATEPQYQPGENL

SMILES strings stand for the structures. Like-named read-outs stand apart in the source and are kept apart here.

In the test the target is recombinant Fyn (Homo sapiens, UniProt P06241). The test is described as follows: Enzymatic assay on isolated Fyn kinase.
Setting [1] is: read-out: Enzymatic Data (Ki, μM) Fyn, mean of at least two experiments.

On to `CCC(C)Sc1nc(Nc2cccc(Cl)c2)c2cnn(CC(Cl)c3ccccc3)c2n1` (stereo not drawn) [Si148, 6-(Sec-butylthio)-N-(3-chlorophenyl)-1-(2-chloro-2-phenylethyl)-1H-pyrazolo[3,4-d]pyrimidin-4-amine], for which the Ki was 7.5 to 16 µM. Regarding `ClC(Cn1ncc2c(Nc3ccccc3)nc(SCCN3CCOCC3)nc21)c1ccccc1` (stereo not drawn) [Si192, 1-(2-chloro-2-phenylethyl)-6-((2-morpholinoethyl)thio)-N-phenyl-1H-pyrazolo[3,4-d]pyrimidin-4-amine, reference compound], the Ki is 7.5 to 16 µM. In addition, the Ki (read-out: Ki Fyn) was 7.5 µM.

Regarding `Cc1ccc(-c2nn(CC(Cl)c3ccccc3)c3ncnc(N)c23)cc1` (stereo not drawn) [Si309, 1-(2-Chloro-2-phenylethyl)-3-(4-methylphenyl)-1H-pyrazolo[3,4-d]pyrimidin-4-amine], the Ki (read-out: Ki Fyn) came out at 0.095 µM. Take `CCC(C)Sc1nc(Nc2cccc(Cl)c2)c2cnn(CC(Cl)c3ccccc3)c2n1` (stereo not drawn) [drawing 197]: the Ki under setting [1] amounted to 12.5 µM. With `CC(Cn1nc(-c2ccccc2)c2c(N)ncnc21)c1ccccc1` (stereo not drawn) [drawing 204], the Ki under setting [1] was determined as 3.35 µM.
